Measured values: patent EP4825392A1, “METHOD FOR TREATING METABOLIC DISEASES AND PHARMACEUTICAL USE OF GLP-1 ANALOGUE” (dated 2026)

Experiments:
[1] = Phase I clinical study: safety, tolerability, pharmacokinetics and pharmacodynamics of single and multiple subcutaneous administrations
Protocol: A randomized, double-blind, dose-escalating, placebo-controlled Phase I clinical study was conducted in healthy subjects to evaluate the safety, tolerability, pharmacokinetic and pharmacodynamic profiles of single and multiple subcutaneous administrations of GLP-1 analogue injections

[2] = Phase II clinical study of efficacy and safety in subjects with type 2 diabetes; conditions: for AE: cell presumably number of subjects (percent); for Abdominal discomfort / Abdominal distension / Abdominal pain / Diarrhea / Flatulence / Gastroesophag eal reflux disease / Nausea / Vomiting: drug-related gastrointestinal adverse reaction during treatment
Text: • 1) The GLP-1 analogue prepared in Example 1, presented as an injection.
Subjects must meet all of the following criteria to be eligible for this study: • 1) Aged 18-65 years (inclusive), without restriction on gender; • 2) Diagnosed with type 2 diabetes according to the criteria of the "Guidelines for the Prevention and Treatment of Type 2 Diabetes in China (2020 Edition)", with a duration of at least 6 months since meeting the diagnostic criteria; • 3) Received lifestyle intervention alone for at least 8 weeks prior to screening, or maintained stable monotherapy with metformin (daily dose ≥ 1000 mg) for at least 8 weeks. Stable treatment is defined as no changes in medication type and daily dosage; • 4) 7.5%≤HbA1c≤10.5% at screening; • 5) Body mass index (BMI) at screening: 22.0-40.0kg/m^2 (inclusive); • 6) Body weight fluctuation (the difference between the maximum and minimum body weight within 3 months) shall not exceed 5 kg in the 3 months before screening.
The investigational drug was administered via subcutaneous injection into the abdomen once a week, either before or after meals.
First treatment period (weeks 0-19): Subjects received GLP-1 analogue injection at doses of 1.0 mg, 2.0 mg, 3.0 mg and 4.5 mg, as well as placebo, for a 20-week treatment duration.
Second treatment period (weeks 20-31): The doses of GLP-1 analogue injection or placebo administered in the first treatment period were maintained. The original investigational product groups were additionally given placebo, and the original placebo group received an additional 1.0 mg of the investigational drug. The treatment lasted for 12 weeks.
Efficacy evaluation indicators include HbA1c, fasting and 2h post-mixed-meal plasma glucose, fasting and 2h post-mixed-meal serum insulin and C-peptide, pancreatic β-cell function, insulin resistance (HOMA model), 7-point SMBG profile, body weight, waist circumference, blood lipids (TC, LDL-C, HDL-C, TG), and blood pressure (systolic blood pressure, diastolic blood pressure), and the like.
Adverse events, hypoglycemic events, laboratory indicators, 12-lead electrocardiogram, vital signs, etc.
A total of 199 subjects with type 2 diabetes were randomly assigned in a 1:1:1:1:1 ratio to receive once-weekly subcutaneous injections of GLP-1 analogue (1.0 mg, 2.0 mg, 3.0 mg, and 4.5 mg) or placebo for 20 weeks. The primary endpoint was the change in glycated hemoglobin (HbA1C) relative to baseline after 20 weeks of administration.

[3] = D22, after the fourth subcutaneous administration of 0.9 mg, 2.7 mg and 5.4 mg
[4] = single subcutaneous injection, 0.1 to 8.1 mg, across all dose groups

## H-YAibEGTFTSDYSIYK(OEG-OEG-γGlu-C20-OH)EKIAAQEFVNWLLAGGPSSGAPPPS-NH2
[1]; 0.9 mg and 2.7 mg dose groups
  exposure accumulation ratio on D22: approximately 2 fold
[1]; 72 subjects, single or multiple administrations, 0.1 to 8.1 mg
  severe hypoglycemia or serious adverse events: No severe hypoglycemia or serious adverse events occurred
[1]; 72 subjects, single or multiple administrations, 0.1 to 8.1 mg (47/72)
  incidence of GLP-1 analogue-related adverse events (AEs): 65.3%
[1]; [3]
  arithmetic mean of t1/2: 169 to 192 h
  geometric mean of MRT: 11.6 to 12.6 days
  geometric mean of steady-state apparent clearance (CLss/F): 27.7 to 41.1 mL/h
[1]; D22, after the fourth subcutaneous administration of 0.9 mg, 2.7 mg and 5.4 mg, all dose groups
  median time to peak: 48 to 72 h
[1]; [4]
  arithmetic mean of the terminal elimination half-life (t1/2): 156 to 182 h
  geometric mean of the mean residence time (MRT): 10.5 to 12 days
  median time to peak: 48 to 72 h
[2]; 1.0 mg (N=40)
  Hypoglycemia Grade 2-3: 0
  AE: 30 (75.0)
  Abdominal discomfort: 0
  Abdominal distension: 2 (5.0)
  Abdominal pain: 1 (2.5)
  Diarrhea: 6 (15.0)
  Flatulence: 1 (2.5)
  Gastroesophag eal reflux disease: 0
  Nausea: 4 (10.0)
  Vomiting: 2 (5.0)
[2]; 2.0 mg (N=41)
  Hypoglycemia Grade 2-3: 0
  AE: 35 (85.4)
  Abdominal discomfort: 2 (4.9)
  Abdominal distension: 1 (2.4)
  Abdominal pain: 0
  Diarrhea: 10 (24.4)
  Flatulence: 1 (2.4)
  Gastroesophag eal reflux disease: 0
  Nausea: 7 (17.1)
  Vomiting: 1 (2.4)
[2]; 3.0 mg (N=39)
  Hypoglycemia Grade 2-3: 0
  AE: 32 (82.1)
  Abdominal discomfort: 0
  Abdominal distension: 3 (7.7)
  Abdominal pain: 0
  Diarrhea: 10 (25.6)
  Flatulence: 0
  Gastroesophag eal reflux disease: 0
  Nausea: 9 (23.1)
  Vomiting: 3 (7.7)
[2]; 4.5 mg (N=40)
  Hypoglycemia Grade 2-3: 0
  AE: 34 (85.0)
  Abdominal discomfort: 2 (5.0)
  Abdominal distension: 6 (15.0)
  Abdominal pain: 2 (5.0)
  Diarrhea: 14 (35.0)
  Flatulence: 2 (5.0)
  Gastroesophag eal reflux disease: 3 (7.5)
  Nausea: 9 (22.5)
[2]; GLP-1 analogue groups 1.0 to 4.5 mg
  clinically significant hypoglycemia (< 3 mmol/L) or severe hypoglycemia: No clinically significant hypoglycemia (< 3 mmol/L) or severe hypoglycemia was reported
